Experimental data as given in patent US12433876B2, “Septin inhibitors for treatment of cancers” (UNIVERSITY OF ROCHESTER, priority 2019, dated 2025).

System: SKOV-3 xenograft tumors
Assay: SKOV-3 xenograft tumor growth
Assay type: in vivo, NSG mice
Excerpt: Cell Cycle Protein Expression. Cell Cycle Antibody Array (FullMoon BioSystems Inc, catalogue number: ACC:058), a high throughput ELISA based antibody array, designed for qualitative/semi-quantitative protein expression profiling was employed to investigate the protein changes after drug treatment. PANC-1 cells were lysed in buffer containing protease and phosphatase inhibitors (Cell Signaling, catalog number: 9803S). Total protein content was quantified by Bradford assay and equal amounts of proteins were analyzed in duplicate with arrays containing 4 to 6 spots for each of 60 probes (ACC058, Cell Cycle Antibody Array; Full Moon Biosystems, Sunnyvale, Calif.), according to manufacturer's instructions. After background correction, mean signal intensities were measured using FullMoon Inc's imaging services. Protein expressions in both the naïve and 328 treatment group was normalized to GAPDH signals. Confocal Analysis of Septin Disarrangement. To determine the impact of UR214-9 treatment on Septin-2 structure in cells, PANC-1 or JIMT-1 cells were seeded on glass slides and allowed to adhere overnight. The media was replaced with complete DMEM media supplemented with DMSO or UR214-9 (1 μM and 70 nM) and cells were incubated for 48 hours. Media was replaced again with new complete medium and fixed with neutral buffered formalin for 15 minutes at […]. Media was removed and cells were washed repeatedly with PBST (5×5 mL). The cells were stained with Septin-2 antibody (Sigma Aldrich, catalog number: HPA018481) in PSB overnight at […]. Media was removed again and cells were washed with 2×5 mL PBST. The cells were stained with fluorescence linked secondary antibody for 1 hr under dark. Slides were washed repeatedly in dark for 7×5 mL PBST, mounting medium containing DAPI (Vector labs) were applied and covered with glass slide. The slides were stored in dark at 40 C till analysis. […] Five cells were outlined and analyzed per field. […]

trastuzumab: anti-HER2 antibody trastuzumab (Herceptin™) [reference compound]
tumor growth during treatment (UR214-9 25 mg/kg, M-F, I.P., trastuzumab 10 mg/kg, M): controlled the growth of tumors | weight of extracted tumors (day 53 since inoculation): matched the average size seen in vehicle group | tumor size after treatments were stopped (treatment stopped on day 27): reached the average size in control
